Values of other authors as cited in paper PMC8780549, “Discovery of Small Molecules as Membrane-Bound Catechol-O-methyltransferase Inhibitors with Interest in Parkinson’s Disease: Pharmacophore Modeling, Molecular Docking and In Vitro Experimental Validation Studies” (Pharmaceuticals, 2021).

System: Recombinant SCOMT
Conditions: cited from earlier work

Which IC50 does the source give for `O=[N+]([O-])c1cc(O)c(O)c([N+](=O)[O-])c1` here?
The IC50 was 13.3 nM.
